From US9452154B2, “Methods for treating HCV” (Gilead Sciences, Inc., priority 2010, dated 2016)

Tested on: Huh-7 cells carrying a HCV genotype 1a replicon
Test: Biological Example 3: cytotoxicity in combination studies (MacSynergy II)
Details: in combination with Compound 4

NC(=O)c1ncn([C@@H]2O[C@H](CO)[C@@H](O)[C@H]2O)n1 [Ribavirin, 1-β-D-ribofuranosyl-1H-1,2,4-Triazole-3-carboxamide, reference compound]
Antagonism Volume (cytotoxicity): −1 ± 2 nM^2%
Interaction (cytotoxicity): Additivity (Additivity: ≦25 and >−25 nM^2%)
Synergy Volume (cytotoxicity): 4 ± 3 nM^2%
